# Apparent affinities of Ab-95 variants for a coronavirus HR2 peptide

Binding partner: SARS-CoV-2 spike HR2 peptide, sequence PDVDLGDISGINAS.

Each scFv is VH, the linker GGGGSGGGGSGGGGS, VL, as in the parent Ab-95, and differs from it in the CDRs of the light chain only.
VH: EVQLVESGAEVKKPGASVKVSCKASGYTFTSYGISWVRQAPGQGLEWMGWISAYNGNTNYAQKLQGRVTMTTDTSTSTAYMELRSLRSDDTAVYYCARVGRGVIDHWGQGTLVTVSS
VL: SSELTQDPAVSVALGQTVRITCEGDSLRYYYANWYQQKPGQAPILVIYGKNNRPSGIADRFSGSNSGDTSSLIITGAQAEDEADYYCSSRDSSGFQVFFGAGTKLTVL

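In library AAYL52, one, two or three CDR residues were substituted; doubles and triples were drawn at random. AlphaSeq pools MATa yeast showing the antibodies with MATalpha yeast showing the peptide. Pairs that bind mate more often; barcode pairs of the diploids are counted by sequencing. Read counts were normalised to the haploid input and turned into Kd by a linear fit to BCL2-family pairs of known affinity, for each replicate. Each pool was mated in three replicate cultures.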

Changes read parent residue, position, new residue, counted from the first residue of the VL shown. Scale: log10 of Kd in nM, estimated from mating counts; low values are strong binders. "ND" means that the variant was in the library but no mating with the target was seen in that replicate; the authors take this as a sign of poor binding, and no number exists. Three control strains display no target. For library AAYL52, 28% of the pairings with them gave a signal, with a median of 3.91 and one signal in twenty below 2.90, so weak values seen in few replicates may be background. The control count says in how many pairings with the empty strains this scFv gave a signal, with their mean in brackets.

| changes | log10 Kd (nM) by replicate | control signals |
|---|---|---|
| S26T+A32R+G49S | 4.36 / ND / 4.52 | 1/9 (4.35) |
| S89C+S92D+F95M | 2.70 / 2.45 / 2.02 | 5/9 (3.43) |
| D25V+L27V+Y31T | ND / ND / 4.06 | 1/9 (4.92) |
| S88C+D91T+Q96V | 2.41 / 2.66 / 2.21 | 5/9 (4.10) |
| N33Q+R90Y+D91C | 3.98 / ND / 3.57 | 1/9 (3.59) |
| E23H+K50D+Q96E | 1.95 / 1.68 / 1.50 | 2/9 (4.07) |
| G24W+N33H+N52R | ND / ND / ND | 0/9 |
| N33A+N51T+V97W | 4.96 / ND / ND | 0/9 |
| N52P+D91Y+Q96V | 4.05 / 3.34 / 4.61 | 4/9 (3.90) |
| Y30P+G49R+S92D | ND / 3.04 / ND | 1/9 (3.26) |
| L27I+N51D+S55N | 3.32 / 2.58 / 2.32 | 1/9 (3.80) |
| S26R+Y30M+G94N | 3.79 / 4.07 / 3.86 | 2/9 (2.69) |
| E23N+R53E+P54L | ND / ND / 3.21 | 2/9 (3.56) |
| N52P+P54S+V97W | 5.63 / 5.35 / ND | 3/9 (4.32) |
| R53G+F95W+Q96C | 5.07 / 5.47 / ND | 4/9 (3.69) |
| N33V+K50C+S92C | ND / 3.83 / 4.37 | 3/9 (3.56) |
| L27P+K50N+S88W | ND / ND / ND | 0/9 |
| S26R+N33Y+N52G | ND / ND / ND | 4/9 (3.92) |
| G24C+N52I+F98P | 3.21 / 2.94 / ND | 2/9 (3.43) |
| N52G+S89G+F98C | 4.07 / ND / ND | 1/9 (4.67) |
| G49K+R90K | ND / ND / ND | 1/9 (3.86) |
| S26C | 3.36 / 2.80 / 2.49 | 4/9 (3.81) |
| Y29T+N33H+R53Y | 4.55 / ND / ND | 4/9 (3.70) |
| S26Y+S55P+S89E | ND / 4.77 / ND | 5/9 (4.16) |
| G49K+N52E | 2.95 / 2.90 / 3.28 | 3/9 (3.53) |
| E23K+A32K+S92K | 4.12 / 4.04 / ND | 3/9 (3.85) |
| N33M+K50G+V97T | ND / ND / ND | 1/9 (3.31) |
| D25F+N33V+R53I | ND / ND / ND | 2/9 (3.77) |
| L27N+R90G+V97K | 3.62 / 5.54 / ND | 2/9 (2.96) |
| Y31C+D91L | 3.61 / 4.60 / ND | 5/9 (3.66) |
| Y30Q+P54C+S92Y | 1.36 / 1.24 / 0.94 | 2/9 (4.01) |
| Y30G+S93K | 1.47 / 1.09 / 1.34 | 1/9 (3.01) |
| R28K+S92W+G94R | 3.46 / 2.81 / 2.92 | 3/9 (4.87) |
| L27C+N33Y+N51Q | ND / ND / ND | 3/9 (4.28) |
| R28Y+S88G+Q96W | ND / 3.76 / ND | 3/9 (4.02) |
| Y30V+A32P+R90Y | 4.85 / 2.99 / 4.03 | 3/9 (3.27) |
| Y29L+S88L | 3.38 / 3.23 / ND | 3/9 (3.28) |
| E23V+A32R+S88R | ND / 4.96 / 4.46 | 6/9 (4.09) |
| Y30H+S88T | 1.72 / 1.73 / 1.45 | 2/9 (3.51) |
| S26Q+N33H+Q96N | 3.33 / 3.83 / 2.54 | 4/9 (3.76) |
| S92R+Q96R | 3.31 / 3.07 / 2.82 | 5/9 (4.09) |
| S26V+Y31V+N33V | ND / ND / ND | 2/9 (3.85) |
| N51M+S93E | 3.58 / 3.76 / ND | 2/9 (3.48) |
| P54M+R90T | 5.11 / ND / 4.01 | 4/9 (4.47) |
| G49C+P54N+D91K | ND / ND / ND | 1/9 (4.38) |
| S26Y+R28D+F98S | ND / 4.55 / ND | 2/9 (4.01) |
| G24T+S89D+S92F | 4.23 / ND / ND | 1/9 (4.24) |
| R90M+V97C | 2.27 / 2.76 / 2.08 | 0/9 |
| L27T+P54D+Q96R | 3.74 / ND / ND | 0/9 |
| S26I+S93C+G94I | 4.43 / 3.81 / ND | 4/9 (3.84) |
| Y30I+Y31A+R90A | 2.50 / 2.23 / 3.41 | 1/9 (3.59) |

A selection of 5 entries from above:

{"changes": "N51M+S93E", "log10 Kd (nM) by replicate": "3.58 / 3.76 / ND", "control signals": "2/9 (3.48)"}
{"changes": "G24W+N33H+N52R", "log10 Kd (nM) by replicate": "ND / ND / ND", "control signals": "0/9"}
{"changes": "S26T+A32R+G49S", "log10 Kd (nM) by replicate": "4.36 / ND / 4.52", "control signals": "1/9 (4.35)"}
{"changes": "D25V+L27V+Y31T", "log10 Kd (nM) by replicate": "ND / ND / 4.06", "control signals": "1/9 (4.92)"}
{"changes": "Y30P+G49R+S92D", "log10 Kd (nM) by replicate": "ND / 3.04 / ND", "control signals": "1/9 (3.26)"}

From the AlphaSeq antibody data of Engelhart et al. 2022 (doi:10.1038/s41597-022-01779-4), copy in the FLAb collection.